## CycPeptMPDB entries from one study

Collected by the curators of CycPeptMPDB (Li et al. 2023) from Wang et al. 2021, doi:10.1021/acs.jmedchem.1c00775.

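The data file gives no further conditions (lipid, pH, time, direction or concentration), and values from different papers need not be comparable. Other peptides of the study may be missing here. Peptides that the database sets to -10, its floor, are left out.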

PAMPA measures passive passage through an artificial lipid membrane.
Permeability is given as log10 of P in cm/s; higher (less negative) is more permeable.
A value with < or ≤ is an upper limit.

CC(C)C[C@@H]1NC(=O)[C@H](C)N(C)C(=O)[C@H](CC(C)C)NC(=O)[C@@H]2CCCN2C(=O)CN(C)C(=O)[C@H](CC(C)C)NC(=O)[C@H](C)N(C)C(=O)[C@H](CC(C)C)NC(=O)[C@@H]2CCCN2C(=O)CN(C)C1=O has PAMPA -6.70 (log10 cm/s). For CC(C)C[C@@H]1NC(=O)[C@H](Cc2ccccc2)N(C)C(=O)[C@H]2CCCN2C(=O)[C@H](CC(C)C)NC(=O)[C@H](C)N(C)C(=O)[C@H](CC(C)C)NC(=O)[C@H](Cc2ccccc2)N(C)C(=O)[C@H]2CCCN2C(=O)[C@H](CC(C)C)NC(=O)[C@H]([C@@H](C)O)N(C)C1=O the data give PAMPA -5.00 (log10 cm/s). CC(C)C[C@@H]1NC(=O)[C@H](C)N(C)C(=O)[C@H](CC(C)C)NC(=O)[C@H](C(C)C)N(C)C(=O)[C@@H](C)N(C)C(=O)[C@H](CC(C)C)NC(=O)[C@H](C)N(C)C(=O)[C@H](CC(C)C)NC(=O)[C@H](C(C)C)N(C)C(=O)[C@@H](C)N(C)C1=O is reported with PAMPA -4.80 (log10 cm/s). The entry for CC(C)C[C@@H]1NC(=O)[C@H]([C@@H](C)O)N(C)C(=O)[C@H]2CCCN2C(=O)[C@H](CC(C)C)NC(=O)[C@H](C)N(C)C(=O)[C@H](CC(C)C)NC(=O)[C@H]([C@@H](C)O)N(C)C(=O)[C@H]2CCCN2C(=O)[C@H](CC(C)C)NC(=O)[C@H](C)N(C)C1=O lists PAMPA -5.10 (log10 cm/s). The entry for CC(C)C[C@@H]1NC(=O)[C@H](C)N(C)C(=O)[C@H]2C[C@H](O)CN2C(=O)[C@H](CC(C)C)NC(=O)[C@H](C)N(C)C(=O)[C@H](CC(C)C)NC(=O)[C@H](C)N(C)C(=O)[C@H]2CCCN2C(=O)[C@H](CC(C)C)NC(=O)[C@H](C)N(C)C1=O lists PAMPA < -6.90 (log10 cm/s). The entry for CC(C)C[C@@H]1NC(=O)[C@H]([C@@H](C)O)N(C)C(=O)[C@H]2C[C@H](O)CN2C(=O)[C@H](CC(C)C)NC(=O)[C@H](C)N(C)C(=O)[C@H](CC(C)C)NC(=O)[C@H](Cc2ccccc2)N(C)C(=O)[C@H]2C[C@H](O)CN2C(=O)[C@H](CC(C)C)NC(=O)[C@H](C)N(C)C1=O lists PAMPA < -6.90 (log10 cm/s). The entry for CC(C)C[C@@H]1NC(=O)[C@H](C)N(C)C(=O)[C@H]2CCCN2C(=O)[C@H](CC(C)C)NC(=O)[C@H](C)N(C)C(=O)[C@H](CC(C)C)NC(=O)[C@H](C)N(C)C(=O)[C@H]2CCCN2C(=O)[C@H](CC(C)C)NC(=O)[C@H](C)N(C)C1=O lists PAMPA -4.60 (log10 cm/s).

CC(C)C[C@@H]1NC(=O)[C@H](C)N(C)C(=O)[C@H]2CCCN2C(=O)[C@H](CC(C)C)NC(=O)[C@H](C)N(C)C(=O)[C@H]([C@@H](C)O)NC(=O)[C@H](C)N(C)C(=O)[C@H]2CCCN2C(=O)[C@H](CC(C)C)NC(=O)[C@H](C)N(C)C1=O has PAMPA -5.90 (log10 cm/s). The entry for CC(C)C[C@@H]1NC(=O)[C@H](Cc2ccccc2)N(C)C(=O)[C@H]2CCCN2C(=O)[C@H](CC(C)C)NC(=O)[C@H](C)N(C)C(=O)[C@H]([C@@H](C)O)NC(=O)[C@H](Cc2ccccc2)N(C)C(=O)[C@H]2CCCN2C(=O)[C@H](CC(C)C)NC(=O)[C@H](C)N(C)C1=O lists PAMPA -4.70 (log10 cm/s). For CC(C)C[C@@H]1NC(=O)[C@H](C)N(C)C(=O)[C@H]2CCCN2C(=O)[C@H](CC(C)C)NC(=O)[C@H](C)N(C)C(=O)[C@H](CC(C)C)NC(=O)[C@H](C)N(C)C(=O)[C@H]2CCCN2C(=O)[C@H](CC(C)C)NC(=O)[C@H]([C@@H](C)O)N(C)C1=O the data give PAMPA -5.80 (log10 cm/s). For CC(C)C[C@@H]1NC(=O)[C@H]([C@@H](C)O)N(C)C(=O)[C@H]2CCCN2C(=O)[C@H](CC(C)C)NC(=O)[C@H]([C@@H](C)O)N(C)C(=O)[C@H](CC(C)C)NC(=O)[C@H]([C@@H](C)O)N(C)C(=O)[C@H]2CCCN2C(=O)[C@H](CC(C)C)NC(=O)[C@H]([C@@H](C)O)N(C)C1=O the data give PAMPA < -6.50 (log10 cm/s). The entry for CC(C)C[C@@H]1NC(=O)[C@H](C)N(C)C(=O)[C@H](CC(C)C)NC(=O)[C@H](C)N(C)C(=O)[C@@H](C)N(C)C(=O)[C@H](CC(C)C)NC(=O)[C@H](C)N(C)C(=O)[C@H](CC(C)C)NC(=O)[C@H](C)N(C)C(=O)[C@@H](C)N(C)C1=O lists PAMPA -4.00 (log10 cm/s). CC(C)C[C@@H]1NC(=O)[C@H]([C@@H](C)O)N(C)C(=O)[C@H]2CCCN2C(=O)[C@H](CC(C)C)NC(=O)[C@H](C)N(C)C(=O)[C@H](CC(C)C)NC(=O)[C@H](Cc2ccccc2)N(C)C(=O)[C@H]2CCCN2C(=O)[C@H](CC(C)C)NC(=O)[C@H](C)N(C)C1=O is reported with PAMPA -4.30 (log10 cm/s). CC(C)C[C@@H]1NC(=O)[C@@H]2CCCN2C(=O)[C@H]2CCCN2C(=O)[C@H](CC(C)C)NC(=O)[C@H](C)N(C)C(=O)[C@H](CC(C)C)NC(=O)[C@@H]2CCCN2C(=O)[C@H]2CCCN2C(=O)[C@H](CC(C)C)NC(=O)[C@H](C)N(C)C1=O has PAMPA -6.60 (log10 cm/s).

The entry for CC(C)C[C@@H]1NC(=O)[C@H](C(C)C)N(C)C(=O)[C@H]2CCCN2C(=O)[C@H](CC(C)C)NC(=O)[C@H](C)N(C)C(=O)[C@H](CC(C)C)NC(=O)[C@H](C(C)C)N(C)C(=O)[C@H]2CCCN2C(=O)[C@H](CC(C)C)NC(=O)[C@H](C)N(C)C1=O lists PAMPA -4.40 (log10 cm/s). CC(C)C[C@@H]1NC(=O)[C@H]([C@@H](C)O)N(C)C(=O)[C@H]2CCCN2C(=O)[C@H](CC(C)C)NC(=O)[C@H]([C@@H](C)O)N(C)C(=O)[C@H](CC(C)C)NC(=O)[C@H](C)N(C)C(=O)[C@H]2CCCN2C(=O)[C@H](CC(C)C)NC(=O)[C@H]([C@@H](C)O)N(C)C1=O is reported with PAMPA < -6.50 (log10 cm/s). CC(C)C[C@@H]1NC(=O)[C@H](C)N(C)C(=O)[C@H]2CCCN2C(=O)[C@H](CC(C)C)NC(=O)[C@H](C)N(C)C(=O)[C@H](CC(C)C)NC(=O)[C@H](C)N(C)C(=O)[C@H]2CCCN2C(=O)[C@H]([C@@H](C)O)NC(=O)[C@H](C)N(C)C1=O is reported with PAMPA -6.50 (log10 cm/s). CC(C)C[C@@H]1NC(=O)[C@H](C)N(C)C(=O)[C@H](CC(C)C)NC(=O)[C@H](C(C)C)N(C)C(=O)[C@H]2CCCN2C(=O)[C@H](CC(C)C)NC(=O)[C@H](C)N(C)C(=O)[C@H](CC(C)C)NC(=O)[C@H](C(C)C)N(C)C(=O)[C@@H](C)N(C)C1=O has PAMPA -4.30 (log10 cm/s). CC(C)C[C@@H]1NC(=O)[C@H](Cc2ccccc2)N(C)C(=O)[C@H]2CCCN2C(=O)[C@H](CC(C)C)NC(=O)[C@H](C)N(C)C(=O)[C@H](CC(C)C)NC(=O)[C@H](Cc2ccccc2)N(C)C(=O)[C@H]2CCCN2C(=O)[C@H]([C@@H](C)O)NC(=O)[C@H](C)N(C)C1=O is reported with PAMPA -3.90 (log10 cm/s). Listed for CC(C)C[C@@H]1NC(=O)[C@H](C)N(C)C(=O)[C@H](CC(C)C)NC(=O)[C@@H]2CCCN2C(=O)[C@H]2CCCN2C(=O)[C@H](CC(C)C)NC(=O)[C@H](C)N(C)C(=O)[C@H](CC(C)C)NC(=O)[C@H](C(C)C)N(C)C(=O)[C@@H](C)N(C)C1=O: PAMPA -4.60 (log10 cm/s). CC(C)C[C@@H]1NC(=O)[C@H](C)N(C)C(=O)[C@H]2CCCN2C(=O)[C@H](CC(C)C)NC(=O)[C@H]([C@@H](C)O)N(C)C(=O)[C@H](CC(C)C)NC(=O)[C@H](C)N(C)C(=O)[C@H]2CCCN2C(=O)[C@H](CC(C)C)NC(=O)[C@H]([C@@H](C)O)N(C)C1=O is reported with PAMPA < -6.50 (log10 cm/s).

CC(C)C[C@@H]1NC(=O)[C@H](C)N(C)C(=O)[C@H](CC(C)C)NC(=O)[C@H](Cc2ccccc2)N(C)C(=O)[C@@H](C)N(C)C(=O)[C@H](CC(C)C)NC(=O)[C@H](C)N(C)C(=O)[C@H](CC(C)C)NC(=O)[C@H](Cc2ccccc2)N(C)C(=O)[C@@H](C)N(C)C1=O has PAMPA -5.90 (log10 cm/s). CC(C)C[C@@H]1NC(=O)[C@H](C)N(C)C(=O)[C@H]2CCCN2C(=O)[C@H](CC(C)C)NC(=O)[C@H](C)N(C)C(=O)[C@H](CC(C)C)NC(=O)[C@H]([C@@H](C)O)N(C)C(=O)[C@H]2CCCN2C(=O)[C@H](CC(C)C)NC(=O)[C@H]([C@@H](C)O)N(C)C1=O is reported with PAMPA < -6.50 (log10 cm/s).

The last 2 entries again:

CC(C)C[C@@H]1NC(=O)[C@H](C)N(C)C(=O)[C@H](CC(C)C)NC(=O)[C@H](Cc2ccccc2)N(C)C(=O)[C@@H](C)N(C)C(=O)[C@H](CC(C)C)NC(=O)[C@H](C)N(C)C(=O)[C@H](CC(C)C)NC(=O)[C@H](Cc2ccccc2)N(C)C(=O)[C@@H](C)N(C)C1=O has PAMPA -5.90 (log10 cm/s).
CC(C)C[C@@H]1NC(=O)[C@H](C)N(C)C(=O)[C@H]2CCCN2C(=O)[C@H](CC(C)C)NC(=O)[C@H](C)N(C)C(=O)[C@H](CC(C)C)NC(=O)[C@H]([C@@H](C)O)N(C)C(=O)[C@H]2CCCN2C(=O)[C@H](CC(C)C)NC(=O)[C@H]([C@@H](C)O)N(C)C1=O has PAMPA < -6.50 (log10 cm/s).